These are literature values, as cited in publication PMC8780549, “Discovery of Small Molecules as Membrane-Bound Catechol-O-methyltransferase Inhibitors with Interest in Parkinson’s Disease: Pharmacophore Modeling, Molecular Docking and In Vitro Experimental Validation Studies” (Pharmaceuticals, 2021).

For orientation: IC50 means the midpoint of a concentration-inhibition curve.

This series relates to Recombinant SCOMT. Particulars: cited from earlier work.

Take `O=[N+]([O-])c1cc(O)c(O)c([N+](=O)[O-])c1`: the IC50 is 13.3 nM.
